## Ab-14 heavy chain CDR variants: yeast mating affinities

From the AlphaSeq antibody data of Li et al. 2023 (doi:10.1038/s41467-023-39022-2), copy in the FLAb collection.

Target: peptide PDVDLGDISGINAS, taken from heptad repeat 2 (HR2) of SARS-CoV-2 spike.

Each scFv is VH, a 15-residue (Gly4Ser)3 linker, VL, as in the parent Ab-14, and differs from it in the CDRs of the heavy chain only.
VH: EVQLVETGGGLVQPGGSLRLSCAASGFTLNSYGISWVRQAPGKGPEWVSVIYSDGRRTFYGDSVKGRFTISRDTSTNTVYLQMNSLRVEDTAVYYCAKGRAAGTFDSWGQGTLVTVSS
VL: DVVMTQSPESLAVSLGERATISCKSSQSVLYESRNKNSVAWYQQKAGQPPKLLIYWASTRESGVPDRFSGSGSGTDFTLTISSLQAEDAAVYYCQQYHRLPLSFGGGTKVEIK

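The parent was found by panning a naive human phage display library on the peptide. Designed CDR sequences, proposed from the first random library and measured here. Several design methods are mixed in this list. The assay is AlphaSeq: two haploid yeast populations carry antibody and antigen on their surface. Binding brings cells together so that they mate, and sequencing counts the barcode pairs among the diploids. Each replicate has its own calibration line, from reference interactions of the BCL2 family. Each pool was mated in six replicate cultures.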

Each variant is given by its three heavy chain CDRs, as the data file delimits them; those of the parent are GFTLNSYGIS, VIYSDGRRTFYGDSVK, GRAAGTFDS.
Scale: log10 of Kd in nM, estimated from mating counts; low values are strong binders.
Averages over replicates are reported, and they cover detected replicates only.
Where no diploid with the target was found in any replicate, the entry reads "nd": below detection, most likely a poor binder, though not proof of it.
Order: sorted from the lowest average up, undetected variants last.
Of ten entries with the parent sequence, four were seen in most replicates (averages 0.34 to 2.37), three in one and three in none, so single entries are noisy.
The authors averaged sequences with at least three values out of six and counted those with two or fewer as poor binders.
Three control strains display no target. For all heavy chain designs, 1% of the pairings with them gave a signal, with a median of 2.08 and one signal in twenty below 0.84, so weak values seen in few replicates may be background.
A sequence measured in both rounds can read differently, since the two assays cover different ranges.

"mean, log10 nM",detected,CDR-H1,CDR-H2,CDR-H3
-1.33,6 of 6,GFDLNEYGIS,VIYADGVRTAYADSVK,GEVAGTFDM
-0.76,6 of 6,GFDLDEYGIS,VIYADGVRTAYADSVK,GSNAGTFDV
-0.72,6 of 6,GFDLNEYGIS,VIYADGQRTAYADSVK,GANAGTFDV
-0.53,6 of 6,GFDLNEYGIS,VIYADGRRTFYSDSVK,GAVAGTFDM
-0.43,6 of 6,GFDLNEYGIS,VIYADGVRTAYTDNVK,GNVAGTFDV
-0.40,4 of 6,GFDLNSYGIS,VIYSDGRRTFYQDSVK,GQAAGTFDS
-0.34,6 of 6,GFDLNSYGIS,VIYSDGQRTFYKDSVK,GRTAGTFDS
-0.28,6 of 6,GFDLNEYGIS,VIYADGRRTFYDDSVK,GKNAGTFDQ
-0.27,6 of 6,GFDLNEYGIS,VIYADGRRTAYSDSVK,GANAGTFDQ
-0.27,6 of 6,GFTLDEYGIS,VIYADGRRTFYADSVK,GEEAGTFDI
-0.18,6 of 6,GFDLNEYGIS,VIYADGQRTAYADSVK,GEVAGTFDA
-0.17,6 of 6,GFDLDEYGIS,VIYADGLRTAYADSVK,GNVAGTFDV
-0.06,1 of 6,GFDLNSYGIS,VIYSDGRRTFYGDSVK,GRWAGTFNS
0.05,3 of 6,GFQIEEYGIS,VIYADGDRANYDAKVK,GQIAGTLDM
0.26,6 of 6,GKDLDEYGIS,VIYADGTRTAAANTVK,GEIAGTLNV
0.27,6 of 6,GFELNSYGIS,VIYSDGRRTFYGDSVK,GTQAGTFDS
0.40,6 of 6,GFGLMDYGIS,VIYADGMRTSYANSFK,GAHAGTFDE
0.40,6 of 6,GFSLNSYGIS,VIYSDGRRTFYADSVK,GRAAGTFDT
0.77,6 of 6,GFSLNSYGIS,VIYSDGRRTFYGDAVK,GQTAGTFDS
0.84,6 of 6,GFDLNSYGIS,VIYSDGRRTFYIDSVK,GRAAGTFDF
0.85,6 of 6,GFELNDYGIS,VIYSDGRRTFYGDSVK,GQAAGTFDS
0.92,5 of 6,GFDLNSYGIS,VIYSDGRRTFYQDSVK,GRTAGTFDD
0.92,6 of 6,GFNLNEYGIS,VIYADGMRTAYTDSVK,GETAGTFIN
1.00,6 of 6,GFQLDEYGIS,VIYADGERTHYSNDVK,GTEGGTFQQ
1.02,3 of 6,GFQLNTYGIS,VIYSDGRRTFYGDSVK,GRAAGTFDS
1.22,6 of 6,GFNLGSYGIS,VIYSDGRRTAYGDNVK,GRAAGTFDT
1.37,6 of 6,GFTLNSYGIS,VIYSDGRRTAYGDSVD,GRAAGTFDS
1.37,6 of 6,GFTLNSYGIS,VIYSDGRRTFYGDSVK,GKMAGTFDT
1.39,6 of 6,GFTLNSYGIS,VIYSDGRRAFYSDSVK,GRAAGTFDS
1.41,4 of 6,GFDLNSYGIS,VIYSDGRRTFYGDRVK,GNTAGTFDS
1.50,4 of 6,GFELNSYGIS,VIYSDGRRTFYGDSVK,GRLAGTFDK
1.56,4 of 6,GFGLNSYGIS,VIYSDGRRTFYGDSVK,GRAAGTFDV
1.59,1 of 6,GFTLNSYGIS,VIYSDGRRTFYGDSYK,GRAAGTFDS
1.62,1 of 6,TFTLNSYGIS,VIYSDGRRTFYGDSVK,GREAGTFDW
1.66,4 of 6,GFTLESYGIS,VIYSDGRRTFYGDRVK,GQAAGTFDT
1.81,3 of 6,HFTLNSYGIS,VIYSDGRRTFYDDSVK,GQLAGTFDS
1.95,1 of 6,GFKLASYGIS,VIYSDGRRTFYQDSVK,ERVAGTFDS
1.97,4 of 6,GFTINSYGIS,VIYSDGRRTFYGDSVK,GKNAGTFDS
2.26,2 of 6,GFTLNSYGIS,VIYSDGRRTFYDDSVK,GQAAGTFDS
2.53,2 of 6,GFTANSYGIS,VIYSDGRRTFYDDSVK,GQLAGTFDS
2.68,3 of 6,GFTLNEYGIS,VIYSDGTRTFYTDSVK,GRFAGTFDS
3.17,2 of 6,GFDLNEYGIS,VIYADGRRTAYSDSVK,GGNAGFFDL
nd,0 of 6,GFTLNKYGIS,VIYSDGRRTFYGDSVK,GRAAGTFSS
nd,0 of 6,GFNLDEYGIS,VIYADGQRVAYFNNVK,GKNGAFFSN
nd,0 of 6,GFTLDSYGIS,VIYSLGRRTFYGDSVK,GRAAGTALS
nd,0 of 6,GFTLNDYGIS,VIYSDGRRTLYIDSVK,GHAAGFFDS
nd,0 of 6,GFTLNNYGIS,VIYSDGRRTFYGDSVK,GRAAVIFDS
nd,0 of 6,GFTVNSYGIS,VIYSDGRRTMYGDSVK,GRAAGTFDQ
nd,0 of 6,GFDLNSYGIS,VIYSDGRRTFYGDSVK,GRTAGHFNS
nd,0 of 6,GFTLNSYGIS,VIYSDGRRTFYGDSVK,GRAAPWADS
nd,0 of 6,GFMLNDYGIS,VIYADGRRTAYDDSVK,GPAAGTFDS
nd,0 of 6,GFKLNEYGIS,VVYSWGRRTFYCDSVK,GRAAVTFDQ
nd,0 of 6,GFDLNEYGVS,VIYADGFRTSYTDSVK,GHVVDLLMA
nd,0 of 6,GFNLNSYGIS,VIYSDGRRTFYADSVK,GRAAATFDT
nd,0 of 6,GFTLNEYGIS,VIYSDGRRTFYTDSVK,GRAAGIFDS
nd,0 of 6,GFGLGEYGIS,VIYADGTRTAYVTKVK,GHIAGMFFT
nd,0 of 6,GFDLQEYGIS,VIYADGARKSYTNSVK,GVVGGQMDV
nd,0 of 6,GFTLNSYGIS,VIYSDGRRTFYSDSVK,GQAVGTFDS
nd,0 of 6,GFTLNSYGIS,VIYADGRRTSYDDEVK,GRAAGTFHS
nd,0 of 6,GFSLENYGIS,VIYADGMRTAYANSVK,GENDGYDTT
nd,0 of 6,GFTLNSPGIS,VIYSDGRRTFYHDSVK,GRAAGTFCS
nd,0 of 6,GFNLLEYGIS,VIYSDGRRTFYGDSVK,GRAAGPFDS
nd,0 of 6,GFTLNEYGIS,VIYSDSRRTFYGDSVK,SRAAVTFDQ
nd,0 of 6,GFTLNQYGIS,VIYSDDRRTFYSDSVK,GRMAGFFDS